From ChEMBL document CHEMBL1133297, “Synthesis and erythropoietin receptor binding affinities of N,N-disubstituted amino acids” (Bioorg Med Chem Lett, 2000) come the findings set out here.

The target of this assay is T1, Erythropoietin receptor (Homo sapiens, UniProt P19235).
T1 sequence (P19235 whole entry): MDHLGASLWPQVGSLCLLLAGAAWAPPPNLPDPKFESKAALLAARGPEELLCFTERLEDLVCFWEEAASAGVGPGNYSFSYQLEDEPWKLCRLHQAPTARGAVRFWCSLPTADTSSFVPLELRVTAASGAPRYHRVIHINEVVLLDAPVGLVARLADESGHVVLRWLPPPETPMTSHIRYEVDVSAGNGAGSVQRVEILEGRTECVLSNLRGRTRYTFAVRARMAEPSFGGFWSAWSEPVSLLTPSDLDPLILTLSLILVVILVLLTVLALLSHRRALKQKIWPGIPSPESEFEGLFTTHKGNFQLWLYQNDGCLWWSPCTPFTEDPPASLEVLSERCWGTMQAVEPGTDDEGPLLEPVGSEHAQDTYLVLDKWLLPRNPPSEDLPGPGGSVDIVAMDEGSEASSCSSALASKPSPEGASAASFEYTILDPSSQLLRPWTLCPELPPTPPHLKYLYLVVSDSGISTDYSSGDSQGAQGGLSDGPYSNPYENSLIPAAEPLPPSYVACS
As to the kind of experiment: Compound was evaluated for inhibition of [125I]-EPO binding to Erythropoietin receptor (EBP).
`O=C(O)CC[C@H](C(=O)NCCOCCOCCNC(=O)[C@H](CCC(=O)O)N(Cc1ccc(OCc2ccccc2)cc1)Cc1ccc(OCc2ccccc2)cc1)N(Cc1ccc(OCc2ccccc2)cc1)Cc1ccc(OCc2ccccc2)cc1`: the IC50 stood at 75 µM.
The result for `O=C(O)C[C@@H](C(=O)O)N(C/C=C/c1cccc(Oc2ccccc2)c1)C/C=C/c1cccc(Oc2ccccc2)c1` reads 36 µM.
With `COC(=O)[C@H](CCCCN)N(Cc1ccc(OCc2ccccc2)cc1)Cc1ccc(OCc2ccccc2)cc1`, the IC50 is 10 µM. Against the preceding molecule, the IC50 is about 3.6-fold lower.

As a reminder, the IC50 is the midpoint of a concentration-inhibition curve.
